Experimental data as given in patent US6033847, “InK4c-p18 and InK4d-p19, inhibitors of cyclin-dependent kinases CDK4 and CDK6, and uses thereof” (St. Jude Children's Research Hospital, dated 2000).

What was measured:
Assay in all cases: control GST beads, pull-down of 35S-labelled in vitro translated CDKs
mouse CDK5 = mouse CDK5 (mouse, UniProt P49615)
Protocol: (§1) Equal aliquots of the "input" samples shown in lanes 1–6 were incubated with control beads (lanes 7–12) (i.e., GST-Sepharose; GST=glutathione S-transferase) or with beads containing a GST-p19 fusion protein (lanes 13–18), after which the beads were washed, and adsorbed radiolabeled products were separated on gels and autoradiographed. In Panel B, the experiments were performed as in panel A, except that radiolabeled cyclins D2 and D3 were substituted for cdk gene products; the cdk4 gene product was used as a positive control. All autoradiographic exposure times were 15 hrs.
(§2) Human InK4 polypeptides specifically bind to the cyclin D-dependent catalytic subunits, CDK4 and CDK6 (5,18,45). To study the interactions of mouse p19 and p18 with CDKs, cDNAs encoding CDC2 (CDK1) and CDKs 2–6 were transcribed and translated in vitro, and the radiolabeled products were mixed with GST-tagged p19 and p18 fusion proteins adsorbed to glutathione-Sepharose beads or to GST-Sepharose beads as a control.
(§3) Plasmids derived from pBluescript and containing the entire coding sequences of the mouse cdk2, cdk4, cdk5, or cdk6 genes (Matsuoka et al., Mol. Cell. Biol. 14:7265–7275 (1994); Matsushime et al., Cell 71:323–334 (1992)) or human cdc2/cdk1 or cdk3 genes (provided by Drs. Matthew Meyer-son and Edward Harlow (MGH Cancer Center, Cambridge, Mass.)) were transcribed and translated in vitro (Matsuoka et al., Mol. Cell. Biol. 14:7265–7275 (1994)). Mouse cdk6 cDNA was cloned from a mouse macrophage library (Stratagene, La Jolla, Calif.) by screening with a full-length human cdk6 clone (also provided by M. Meyerson and E. Harlow). […] After 2 hours of incubation at 4° C., beads were collected by centrifugation, washed 4 times in IP kinase buffer, and the bound proteins were denatured and analyzed by electrophoresis on 12.5% polyacrylamide gels containing SDS (Anderson, S. J., et al., J. Virol. 51:730–741 (1984)).

mouse CDK4 = target: T1, mouse CDK4 (mouse, UniProt P30285)
T1 sequence: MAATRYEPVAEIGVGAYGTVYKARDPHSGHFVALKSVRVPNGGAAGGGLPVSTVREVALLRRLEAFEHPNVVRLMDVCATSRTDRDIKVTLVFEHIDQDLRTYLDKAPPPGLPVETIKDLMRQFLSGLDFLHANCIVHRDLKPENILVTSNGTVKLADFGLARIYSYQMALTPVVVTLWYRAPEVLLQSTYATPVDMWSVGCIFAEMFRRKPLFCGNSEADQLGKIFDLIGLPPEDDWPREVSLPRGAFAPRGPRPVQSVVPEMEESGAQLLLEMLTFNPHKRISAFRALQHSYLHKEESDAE
Protocol: as §1, §2, §3

mouse CDK6 = mouse CDK6 (mouse, UniProt Q64261)
Protocol: as §1, §2, §3

Measured: binding result

B1: GST (glutathione S-transferase), control protein (other)
chain: MSPILGYWKIKGLVQPTRLLLEYLEEKYEEHLYERDEGDKWRNKKFELGLEFPNLPYYIDGDVKLTQSMAIIRYIADKHNMLGGCPKERAEISMLEGAVLDIRYGVSRIAYSKDFETLKVDFLSKLPEMLKMFEDRLCHKTYLNGDHVTHPDFMLYDALDVVLYMDPMCLDAFPKLVCFKKRIEAIPQIDKYLKSSKYIAWPLQGWQATFGGGDHPPK
no binding (tested: 1 ug on beads): all assays above
